Laboratory results: ChEMBL document CHEMBL4024777, “Discovery of LY3104607: A Potent and Selective G Protein-Coupled Receptor 40 (GPR40) Agonist with Optimized Pharmacokinetic Properties to Support Once Daily Oral Treatment in Patients with Type 2 Diabetes Mellitus” (J Med Chem, 2018)

Assay: Intrinsic clearance in human hepatocytes
Assay type: ADME, cell-based, Hepatocyte

## CC#C[C@@H](CC(=O)O)c1ccc(OCc2ccc(CN3CCC4(C=Cc5ccccc54)CC3)cc2)cc1 [LY2881835]
  K: 0.28 h⁻¹
